Measurements from patent US11926626B2, “Heterocyclic GLP-1 agonists” (Gasherbrum Bio, Inc., priority 2020, dated 2024).
pEC50: −log10 of the molar value.

Sequences of proteins named here, by UniProt entry; tags and fusion partners are left off. Residues count along the entry.
UniProt P43220, 24-463: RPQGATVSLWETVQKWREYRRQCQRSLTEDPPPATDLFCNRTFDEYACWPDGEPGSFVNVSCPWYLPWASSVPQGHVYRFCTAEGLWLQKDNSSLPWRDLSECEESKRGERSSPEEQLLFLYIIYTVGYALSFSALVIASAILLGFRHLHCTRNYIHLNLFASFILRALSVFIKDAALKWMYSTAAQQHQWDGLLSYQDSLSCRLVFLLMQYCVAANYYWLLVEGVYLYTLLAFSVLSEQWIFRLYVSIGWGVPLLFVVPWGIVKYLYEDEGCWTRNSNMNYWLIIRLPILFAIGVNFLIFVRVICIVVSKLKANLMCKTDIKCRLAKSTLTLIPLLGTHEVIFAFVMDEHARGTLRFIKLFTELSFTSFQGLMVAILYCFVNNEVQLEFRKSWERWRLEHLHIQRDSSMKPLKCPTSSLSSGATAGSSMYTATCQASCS

What follows are compounds tested against GLP-1 Receptor (Homo sapiens, UniProt P43220) (assay: GLP-1R agonist cAMP stimulation assay (HEK293/GLP1R/CRE-Luc cells, HTRF cAMP)). Conditions: not given.
Assay type: cell-based
Description: Activation of GLP-1 receptor is known to stimulate cyclic AMP (cAMP) production in cells which indicates primary coupling to the Gαs subunit of the G protein heterotrimeric complex.
To optimize functional activity directed toward Gαs coupling, a HEK293/CRE-Luc cell line developed by HDB stably expressing the GLP-1 Receptor was used. […] 1×10^5 cells/mL HEK293/GLP1R/CRE-LUC(HD Biosciences) cell suspensions prepared with assay buffer[DPBS containing 0.5 mM IBMX (Sigma, Cat #I5879) and 0.1% BSA (GENVIEW, Cat #FA016-100g)], 10 uL cell suspensions were added to each well of previous generated assay plate which already contains 50 nl compound at 200×concentration using ThermoFisher Multidrop Combi (1000 cells/well). Seal the plate and incubate at 37° C. with 5% CO2 for 30 min.
After incubation the cAMP assay signal was generated using cAMP dynamic 2 Kit (Cisbio). 5 μL cAMP-d2 working solution was added to each well, followed with 5 μL Anti-cAMP antibody-cryptate working solution added to each well using ThermoFisher Multidrop Combi. Incubate at room temperature for 1 hour protected from light.

| Compound | GLP1R cAMP Stimulation DR: pEC50 |
| --- | --- |
| Cc1cn(Cc2ccc(Cl)cc2F)nc1C(=O)N1CCC(Cc2nc3ccc(C(=O)O)nc3n2C[C@@H]2CCO2)CC1 [Compound 102a, (S)-2-((1-(1-(4-chloro-2-fluorobenzyl)-4-methyl-1H-pyrazole-3-carbonyl)piperidin-4-yl)methyl)-3-(oxetan-2-ylmethyl)-3H-imidazo[4,5-b]pyridine-5-carboxylic acid] | 6.75 |
| O=C(O)c1ccc2nc(CC3CCN(C(=O)c4ccn(Cc5ccc(Cl)cc5F)n4)CC3)n(C[C@@H]3CCO3)c2n1 [Compound 101a, (S)-2-((1-(1-(4-chloro-2-fluorobenzyl)-1H-pyrazole-3-carbonyl)piperidin-4-yl)methyl)-3-(oxetan-2-ylmethyl)-3H-imidazo[4,5-b]pyridine-5-carboxylic acid] | 6.54 |
| O=C(O)c1ccc2nc(CN3CCC(Oc4cccc(Cc5ccc(Cl)cc5F)n4)CC3)n(C[C@@H]3CCO3)c2n1 [Compound 109a, (S)-2-((4-((6-(4-Chloro-2-fluorobenzyl)pyridin-2-yl)oxy)piperidin-1-yl)methyl)-3-(oxetan-2-ylmethyl)-3H-imidazo[4,5-b]pyridine-5-carboxylic acid] | 10.3 |
| O=C(O)c1ccc2nc(CN3CCC(Oc4cccc(Cc5ccccc5)n4)CC3)n(C[C@@H]3CCO3)c2n1 [Compound 123a, 2-({4-[(6-benzylpyridin-2-yl)oxy]piperidin-1-yl}methyl)-3-{[(2S)-oxetan-2-yl]methyl}-3H-imidazo[4,5-b]pyridine-5-carboxylic acid] | 8.8 |
| O=C(O)c1ccc2nc(CC3CCN(Cc4nc(Cc5ccc(Cl)cc5F)cs4)CC3)n(C[C@@H]3CCO3)c2n1 [Compound 105a, (S)-2-((1-((4-(4-Chloro-2-fluorobenzyl)thiazol-2-yl)methyl)piperidin-4-yl)methyl)-3-(oxetan-2-ylmethyl)-3H-imidazo[4,5-b]pyridine-5-carboxylic acid] | 6.3 |
| C[C@H]1CN(C(=O)c2nc(Cc3ccc(Cl)cc3F)cs2)CCN1Cc1nc2ccc(C(=O)O)nc2n1C[C@@H]1CCO1 [Compound 108a, 2-(((S)-4-(4-(4-Chloro-2-fluorobenzyl)thiazole-2-carbonyl)-2-methylpiperazin-1-yl)methyl)-3-(((S)-oxetan-2-yl)methyl)-3H-imidazo[4,5-b]pyridine-5-carboxylic acid] | 8.92 |
| O=C(O)c1ccc2nc(CN3CCC(Oc4ccccc4Cc4ccc(Cl)cc4F)CC3)n(C[C@@H]3CCO3)c2n1 [Compound 107a, (S)-2-((4-(2-(4-Chloro-2-fluorobenzyl)phenoxy)piperidin-1-yl)methyl)-3-(oxetan-2-ylmethyl)-3H-imidazo[4,5-b]pyridine-5-carboxylic acid] | 6.7 |
| O=C(O)c1ccc2nc(CN3CCC(Oc4cccc(Oc5ccc(Cl)cc5F)n4)CC3)n(C[C@@H]3CCO3)c2n1 [Compound 118a, 2-[(4-{[6-(4-chloro-2-fluorophenoxy)pyridin-2-yl]oxy}piperidin-1-yl)methyl]-3-{[(2S)-oxetan-2-yl]methyl}-3H-imidazo[4,5-b]pyridine-5-carboxylic acid] | 7.5 |

Same assay, conditions: read-out: GLP1R cAMP Stimulation DR: EC50

| Compound | pEC50 |
| --- | --- |
| C[C@H]1CN(C(=O)c2nc(Cc3ccc(Cl)cc3F)cs2)CCN1Cc1nc2ccc(C(=O)O)nc2n1C[C@@H]1CCO1 [Compound 108a, 2-(((S)-4-(4-(4-Chloro-2-fluorobenzyl)thiazole-2-carbonyl)-2-methylpiperazin-1-yl)methyl)-3-(((S)-oxetan-2-yl)methyl)-3H-imidazo[4,5-b]pyridine-5-carboxylic acid] | 8.92 |
